{"source": "PubChem BioAssay AID743282", "about": "(The Scripps Research Institute Molecular Screening Center, 2014)", "note": "This is a selection; strong and weak results do not stand in their true shares. Activity calls are given as the source filed them.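 The calls were made as follows: active = average inhibition above the solvent-only control mean plus 3 SD (cut at about 6% in these data); inactive = the rest.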", "data": [{"assay": "BODIPY product fluorescence quenching artefacts – biochemical, QFRET, 535nm, artefact control for HGIII-sPLA2 inhibitor project, confirmation (AID 743282);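 also: 0% = DMSO with substrate plus product and 100% = DMSO with substrate alone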", "conditions": "BODIPY FL product fluorescence interference, at 12.2 µM, active compounds read high", "values": [{"smiles": "CCN1CCC(Nc2ccc(Cl)cc2)CC1", "inhibition": "inactive: -7.42%"}]}]}
